One may read the EC50 as the concentration at which the effect is half-maximal. As usually defined, the Emax is the greatest response seen or fitted, relative to the assay's reference.

This note sets out measurements from ChEMBL document CHEMBL1130384, “Address and message sequences for the nociceptin receptor: a structure-activity study of nociceptin-(1-13)-peptide amide” (J Med Chem, 1997).

The species entered for experiment [1] is Mus musculus. As to the kind of experiment: Tested for apparent affinity on electrically stimulated mouse vas deferens. It counts as functional, organism-based.
Experiment [2] is filed under the species Mus musculus. As to the kind of experiment: Tested for maximal effect induced by agonist. Type of experiment: functional.

In the case of `CC(C)C[C@H](NC(=O)[C@H](CCCCN)NC(=O)[C@H](CCCNC(=N)N)NC(=O)[C@H](C)NC(=O)[C@H](CO)NC(=O)[C@H](CCCCN)NC(=O)[C@H](CCCNC(=N)N)NC(=O)[C@H](C)NC(=O)CNC(=O)[C@@H](NC(=O)[C@H](Cc1ccccc1)NC(=O)CNC(=O)CNC(=O)[C@@H](N)Cc1ccccc1)[C@@H](C)O)C(=O)N[C@@H](C)C(=O)N[C@@H](CC(N)=O)C(=O)N[C@@H](CCC(N)=O)C(N)=O` [NOCICEPTIN-NH2], the 50% effective concentration (EC50) in experiment [1] is 18.2 nM. Moreover, in experiment [2], the Emax is -79%.
